# Screening results as filed in PubChem.
# G9a inh – inhibitors of human histone lysine methyltransferase G9a | Q96KQ7 | G9a H3K9 monomethylation, AlphaScreen, 2 h | Potency, µM (doses to about 102 µM), for inactives: at the highest dose activity, negative = inhibition, most hits filed as inhibitors | 350,000 tested, 8.8% active | AID 504332; also: potency is read from the fitted curve at half-maximal effect; % is scaled to controls: 0 for no effect and ±100 for the full control effect; nearly all actives have a fitted effect of over 75% in size
#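 G9a (20 nM) preincubated 15 min RT with compounds, then 500 nM biotinylated H3K9 peptide and 20 uM SAM added; 2 h RT reaction. Monomethyl-H3K9 product detected by AlphaScreen with anti-H3K9me1 antibody, streptavidin donor and anti-rabbit IgG acceptor beads.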
# miR-21 reporter – raises the signal of a miR-21 reporter. HeLa miR-21 FLuc reporter, luciferase, 48 h. 340,000 tested, under 10 active. Potency, µM (highest dose often 38.3 µM), for the others: at the highest dose reporter change, positive = more light; active = well fitted rising curve with a large enough effect; inconclusive = small, poorly fitted or top-dose-only effect; inactive = no such curve, though single readings can be large or run the other way;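 note: % of control where 0% means no effect; miR-21 action dims this reporter so a rising signal means less miR-21 action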
#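 Compounds were titrated across several concentrations (up to approximately 40 uM) and incubated 48 hours with HeLa miR-21-FLuc reporter cells (miR-21 target sequence downstream of FLuc, endogenous miR-21). Readout was firefly luciferase luminescence after lytic detection reagent.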
# KDM4E inh – JMJD2E (human) inhibition; B2RXH2; JMJD2E catalytic domain, FDH-coupled NADH fluorescence (FDH is formaldehyde dehydrogenase); Potency, µM (top dose mostly 57.1 µM), inactives show at the highest dose activity change, negative = inhibition, actives largely listed as inhibitors; 230,000 tested, 1.6% active; AID 2147; active = well fitted inhibition curve with a large enough effect, not every such curve was filed as active; inconclusive = small, poorly fitted or top-dose-only effect, or another doubt; inactive = no such curve, though single readings can be large or run the other way;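 also: potency is read from the fitted curve at half-maximal effect; 0% = wells with enzyme and -100% = buffer wells without enzyme; nearly all actives have a fitted effect of over 50% in size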
# Sfp PPTase inh – inhibitors of Bacillus subtilis Sfp phosphopantetheinyl transferase; actives 3.5% (n = 310,000); Q9F4F7; Biochemical Sfp PPTase activity, qHTS; Potency, µM, for the others: max response, negative = inhibition, hits mostly inhibitors; active = well fitted inhibition curve with a large enough effect; inconclusive = small, poorly fitted or top-dose-only effect, or another doubt; inactive = no such curve, though single readings can be large or run the other way;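 also: the enzyme is Sfp with the accession as filed and its product quenches rhodamine fluorescence; potency is read from the fitted curve at half-maximal effect; 0% = enzyme reaction without inhibitor and -100% = no enzyme wells; top concentration of the series not given in the record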
#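 Fluorescence-quenching assay with 15 nM Sfp, 5 uM rhodamine-CoA and 12.5 uM BHQ-2-labelled ybbR peptide in pH 7.6 Hepes/MgCl2 buffer. Enzyme was pre-incubated with compound for 15 min at room temperature. Rate was taken from the 30-min fluorescence change (525/598 nm).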
# Lamin A splicing – LMNA splicing modulation | Potency, µM (series often up to 46.1 µM), inactives show at the top dose ratio change, negative = inhibition, usual class: inhibitors | AID 1487 | HeLa LMNA splicing GFP/RFP minigene ratio, 48 h | 200,000 tested, 0.01% active; active = well fitted inhibition curve with a large enough effect in the signal ratio, with a control signal flat, not every such curve was filed as active; inconclusive = small, poorly fitted or top-dose-only effect, or effect the other way, or a change in a side signal; the % refers to the signal ratio; also: potency is read from the fitted curve at half-maximal effect; % is scaled to controls: 0 for no effect and ±100 for the full control effect
#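 S3 HeLa stable clones carrying a lamin A-EGFP splicing minigene plus DsRed2 were seeded at 600 cells/well in Opti-MEM with 2% FBS, pin-dosed and incubated 48 h at 37°C. Acumen cytometry (488 nm) gave the GFP/RFP total-intensity ratio.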
# ALDH1A1 block – inhibitors of human aldehyde dehydrogenase 1A1; Purified ALDH1A1, NADH fluorescence, propionaldehyde substrate; Potency, µM (series often up to 75.3 µM), without a hit: at the top dose activity, negative = inhibition, actives largely listed as inhibitors; 220,000 tested, 7.3% active; AID 1030; active = well fitted inhibition curve with a large enough effect, not every such curve was filed as active; inconclusive = small, poorly fitted or top-dose-only effect, or another doubt; inactive = no such curve, though single readings can be large or run the other way;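 also: potency is read from the fitted curve at half-maximal effect; plate controls were no enzyme wells and a reference inhibitor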
# Numbers without * were called inactive; u = inconclusive; x = no result; [ ] = another dose, or the depositor's remark. In the library only some 13% were active in any assay of this set; here they are far more common. Unless noted, calls follow the shape of the dose curve; as a rule, active = well fitted curve in the direction sought with a large enough effect; inconclusive = small, poorly fitted or top-dose-only effect, or another doubt; inactive = no such curve, though single readings can be large; an effect the other way counts as inactive or inconclusive.
# Short keys: A = G9a inh; B = miR-21 reporter; C = KDM4E inh; D = Sfp PPTase inh; E = Lamin A splicing; F = ALDH1A1 block
mol: COc1cccc(N2CCN(c3ncnc4c3[nH]c3ccccc34)CC2C)c1 (stereo unspecified)
  A: u	B: u	C: -15%	D: 6%	E: u	F: 35µM*
mol: COc1cccc(N2CCN(c3ncnc4c3[nH]c3ccc(F)cc34)CC2C)c1 (stereo unspecified)
  A: 18µM*	B: u	C: u	D: 27%	E: u	F: -6%
mol: CCc1ccc(C(=O)c2cn(CC(=O)Nc3ccc4c(c3)OCO4)c3ccc(F)cc3c2=O)cc1
  A: -30%[59 µM]	B: 20%	C: x	D: x	E: x	F: x
mol: O=C(CSCc1ccc([N+](=O)[O-])cc1)NC1CCCCCC1
  A: x	B: -9%	C: 0%	D: -14%	E: x	F: 25µM*
mol: O=C(CCC(=O)OCC(=O)c1ccc([N+](=O)[O-])cc1)NC1CCCCC1
  A: 2%[59 µM]	B: -4%	C: 3%	D: -14%	E: 7%	F: 2.8µM*
mol: Cc1cccc(NC(=O)CCC(=O)OCC(=O)c2ccc(Oc3ccc([N+](=O)[O-])cc3)cc2)c1
  A: 8.9µM*	B: -14%	C: 2%	D: -7%	E: -12%	F: 7.1µM*
mol: Cc1ccc(NC(=O)CCC(=O)OCC(=O)c2ccc(Oc3ccc([N+](=O)[O-])cc3)cc2)cc1C
  A: -1%[59 µM]	B: -5%	C: -7%	D: 17%	E: -5%	F: -11%
mol: Cc1ccc(N(Cc2cccs2)C(=O)c2ccco2)cc1
  A: -7%[59 µM]	B: -6%	C: x	D: x	E: 28%[46 µM]	F: x
mol: O=C(N/N=C\c1ccccc1O)c1ccccc1O
  A: x	B: x	C: 5µM*	D: -3%	E: x	F: 9%
mol: O=C(N/N=C/c1cccc(O)c1)c1ccccc1O
  A: 21%	B: -17%	C: -5%	D: 15%	E: x	F: x
mol: Cc1cc(C(=O)N/N=C/c2ccc(N(C)C)o2)cs1
  A: u	B: -5%	C: x	D: 13µM*	E: x	F: x
mol: CN(C)c1ccc(/C=N/NC(=O)C(O)(c2ccccc2)c2ccccc2)o1
  A: 7.9µM*	B: -4%	C: -27%	D: 2.8µM*	E: -4%	F: -8%
mol: CN(C)c1ccc(/C=N/NC(=O)c2ccccc2O)o1
  A: 28µM*	B: 3%	C: -8%	D: 16µM*	E: x	F: -3%
mol: O=C(Cc1ccc(Cl)cc1)NCC(c1cccs1)S(=O)(=O)c1ccccc1 (stereo unspecified)
  A: -11%[59 µM]	B: 3%	C: x	D: x	E: -10%[46 µM]	F: x
mol: CCCCC[C@H](O)CC[C@H]1[C@H](O)CC(=O)[C@@H]1CCCCCCC(=O)O
  A: 25%[59 µM]	B: x	C: 4%	D: 16%	E: x	F: 6%
mol: O=S(=O)(Nc1ccc(S(=O)(=O)N2CCCCC2)cc1)c1cccs1
  A: 5%[12.7 µM]	B: -4%	C: 5%	D: 17%	E: -13%	F: 13µM*
mol: Cc1ccc(S(=O)(=O)Nc2ccc(S(=O)(=O)N3CCCC3)cc2)cc1
  A: 0%[59 µM]	B: -6%	C: 7%	D: -17%	E: -5%	F: 0.56µM*
mol: O=C(Cc1cccs1)Nc1ccc(S(=O)(=O)N2CCCC2)cc1
  A: u	B: -8%	C: 1%	D: u	E: x	F: 13µM*
mol: O=S(=O)(Nc1ccc(S(=O)(=O)N2CCCC2)cc1)c1ccc(F)cc1
  A: 23%	B: 0%	C: x	D: 8%	E: x	F: x
mol: COc1cc(C(=O)O[C@H]2C/C(C)=C/CC[C@@]3(C)O[C@@H]3[C@H](O)[C@@H]2C(C)C)cc(OC)c1OC
  A: 37%[0.501 µM]	B: 11%	C: x	D: 0%	E: x	F: x
mol: Cc1cccc(NC(=O)CSc2nc(C3CCCC3)nc3c2c(=O)n(C)c(=O)n3C)c1C
  A: 21%[59 µM]	B: -12%	C: x	D: x	E: u	F: x
mol: c1ccc2[nH]c(SN3CCOCC3)nc2c1
  A: u	B: -6%	C: 5%	D: u	E: -2%	F: 0.79µM*
mol: c1ccc2[nH]c(CN3CCOCC3)nc2c1
  A: 14%[59 µM]	B: -8%	C: 2%	D: 10%	E: -3%	F: -3%
mol: O=C(Nc1ccccc1C(=O)O)c1ccc(Br)o1
  A: u	B: -47%	C: 3%	D: 28%	E: -1%	F: 4µM*
mol: CC(=O)c1cc(C(=O)Nc2ccccc2C(=O)O)oc1C
  A: 50µM*	B: -9%	C: 1%	D: 7%	E: 5%	F: 0.71µM*
mol: CS(=O)(=O)N1CCN(c2ccccc2NC(=O)c2ccc(Br)o2)CC1
  A: -34%	B: 16%	C: 5%	D: 4%	E: -5%	F: 3.2µM*
mol: CC(=O)c1cc(C(=O)Nc2ccc3ccccc3c2)c(C)o1
  A: -15%	B: -4%	C: x	D: 5%	E: x	F: x
mol: N#Cc1ccc(C(=O)NCc2ccc3c(c2)CCN3C(=O)c2ccc(F)cc2)cc1
  A: 9%[59 µM]	B: u	C: x	D: x	E: -19%[46 µM]	F: x
mol: COC(=O)COc1ccc(NC(=O)c2ccco2)cc1
  A: x	B: 0%	C: -1%	D: 3%	E: x	F: x
mol: CC1CCN(Cc2c(C(=O)O)nnn2-c2nonc2N)CC1
  A: 50µM*	B: -1%	C: 2%	D: 18%	E: 3%[46 µM]	F: -3%
mol: CCN1CCN(Cc2c(C(=O)N/N=C(\C)c3ccc(Cl)c(Cl)c3)nnn2-c2nonc2N)CC1
  A: 45µM*	B: 9%	C: x	D: -10%	E: x	F: x
mol: CCOC(=O)c1nnn(-c2nonc2N)c1C
  A: 12%[12.7 µM]	B: 5%	C: 7%	D: -19%	E: -1%	F: -16%
mol: CCCc1c(C(=O)N/N=C(/C)c2ccncc2)nnn1-c1nonc1N
  A: 8%	B: -2%	C: x	D: 7%	E: x	F: x
mol: Nc1nonc1-n1nnc(C(=O)N/N=C/c2c(Cl)cccc2Cl)c1CN1CCOCC1
  A: -9%	B: 1%	C: x	D: 0%	E: x	F: x
mol: Cc1c(C(=O)N2CCCC2)nnn1-c1nonc1N
  A: -45%	B: -4%	C: 1%	D: 27%	E: 0%	F: 25µM*
mol: Nc1nonc1-n1nnc(C(=O)N/N=C\c2cccc(Cl)c2)c1CN1CCOCC1
  A: 40µM*	B: -4%	C: x	D: 12%	E: x	F: x
mol: Cc1cc(C)c(/C=N/NC(=O)c2nnn(-c3nonc3N)c2CN2CCC(C)CC2)c(C)c1
  A: u	B: 2%	C: x	D: 14%	E: x	F: x
mol: Cc1ccc2cccc(NC(=O)c3cccc4c(Cl)cccc34)c2n1
  A: -22%[59 µM]	B: -7%	C: x	D: x	E: x	F: x
mol: Cc1noc(C)c1COc1ccccc1C(=O)NCCOc1ccccc1
  A: -13%	B: x	C: x	D: x	E: x	F: x
mol: CCOC(=O)C(CC)Sc1nc2c(c(=O)[nH]c(=O)n2C)n1CCc1ccccc1 (stereo unspecified)
  A: -30%[59 µM]	B: 1%	C: -8%	D: u	E: 13%	F: 11µM*
mol: Cn1c(=O)[nH]c(=O)c2c1nc(SCC(=O)O)n2CCOc1ccccc1
  A: 16%	B: -2%	C: x	D: 11%	E: x	F: x
mol: CSc1nc2c(c(=O)[nH]c(=O)n2C)n1Cc1ccccc1
  A: -5%	B: -5%	C: x	D: 9%	E: x	F: x
mol: CC(C)CCn1c(SCC(=O)c2ccccc2)nc2c1c(=O)[nH]c(=O)n2C
  A: u	B: -10%	C: -6%	D: 6%	E: 6%	F: 18µM*
mol: CSc1nc2c(c(=O)[nH]c(=O)n2C)n1CCCc1ccccc1
  A: 71µM*	B: -15%	C: x	D: 4%	E: x	F: x
mol: CC(C)CCSc1nc2c(c(=O)[nH]c(=O)n2C)n1CCCc1ccccc1
  A: 40µM*	B: -9%	C: -4%	D: -11%	E: 2%	F: 1%
mol: CN(CC1CCOCC1)C(=O)CC1C(=O)NCCN1Cc1ccc(F)c(F)c1 (stereo unspecified)
  A: 27%[12.7 µM]	B: 0%	C: x	D: -1%	E: x	F: x
mol: CC(Oc1ccc(Cl)cc1Cl)C(=O)Nc1ccc(OCC(=O)O)cc1 (stereo unspecified)
  A: -2%	B: -7%	C: -3%	D: 18%	E: x	F: 8%
mol: CSCC[C@H](NC(=O)OC(C)(C)C)C(=O)N1CCC(C(=O)N[C@@H](C)C(=O)NC(C)c2ccccc2)CC1 (stereo partly specified)
  A: x	B: -1%	C: x	D: 16%	E: x	F: x

# Two entries picked at random from the list so far, as already listed:
# Short keys: A = G9a inh; B = miR-21 reporter; C = KDM4E inh; D = Sfp PPTase inh; E = Lamin A splicing; F = ALDH1A1 block
mol: c1ccc2[nH]c(SN3CCOCC3)nc2c1
  A: u	B: -6%	C: 5%	D: u	E: -2%	F: 0.79µM*
mol: COc1cccc(N2CCN(c3ncnc4c3[nH]c3ccccc34)CC2C)c1 (stereo unspecified)
  A: u	B: u	C: -15%	D: 6%	E: u	F: 35µM*
